From patent US6881706B1, “Use of a quaternary ammonium glycoside surfactant as an adjuvant for fertilizers or pesticides” (Akzo Nobel N.V., priority 1999, dated 2005)

Assay: Foam height measurements, Ross Miles procedure
Assay type: physicochemical
Details: 50° C., 0.05% (w/w) surfactant solution
Protocol: Foam height measurements were performed according to the standard Ross Miles procedure. […] The glucosidised products are compared to the corresponding unglucosidised quaternary ammonium compounds.

Tallowamine ethoxylate
Foam height (mm) after 5 min (after 5 minutes): 5 mm | Foam height (mm) after 0 min (immediately): 95 mm
